Data reported in patent US20260209272A1 (priority 2022, published 2026).

Legend:
detached potato leaves = detached potato leaves treated with peptide plus water, no inoculum; 9 = clean leaves
[1] = test system: Phytophthora infestans zoospores
[2] = plants outdoors, samples 0-16 days, in the presence of Triton, mass spectrometry
[3] = laboratory conditions

RITAQIRL [Peptide V1]
score (1-9 scale), negative control without Phytophthora infestans inoculation (detached potato leaves): 9.00 | activity of peptide exposed to direct sunlight for 48 hours ([1]; FIG. 8 photomicrograph of zoospores): remains active | activity after heat and sunlight exposure ([1]; after exposure to 40° C. for 9 days and direct sunlight): remained active | zoospore germination with sun-exposed dried peptide ([1]; dried droplets outdoors 8 days (48 cumulative hours of direct sunlight), re-dissolved with zoospores): slight amount of germination | peptide's concentration on the leaves [2]: remained relatively stable | adherence to leaves (rain wash-off) [3]: adhered to the leaves
